# Screening results (PubChem BioAssay)
# Sampled rows, rich in hits. Any-hit rate of the full collection: about 1.8%.
# Yeast UUG start: yeast start codon fidelity modulation; AID 602363; activity score, % at 18.7 µM; S. cerevisiae UUG-firefly luciferase reporter, luminescence/redox ratio; 0.13% of 350,000 active;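 active means replicate mean at a twofold rise or more, about +100% in these data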;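 further: firefly luciferase made from a UUG start codon reports start codon fidelity; reporter light over untreated wells divided by growth signal over untreated wells; some hits fall short of that in this replicate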
# DENV2 CPE rescue: inhibitors of DENV2 cytopathic effect, primary screen, cell-based, plate reader, single concentration; DENV2-infected cells, cytopathic effect rescue; CPE inhibition, % at 9.99 µM; 1.7% of 350,000 active; AID 651640, 2012; in the data active means CPE inhibition above about 20%, passing the limit was not always enough; inconclusive means no clear call, values can overlap the other calls; tested in BHK-21 cells;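 further: 0% = median of neutral control wells and 100% = median of positive control wells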
# E-sel inducer: E-selectin induction in HUVECs, primary screen, imaging, HUVEC, immunofluorescence imaging, single point. P16581. normalized: neutral wells 0, TNF-alpha wells 100. activation, % at 7.58 µM. 0.37% of 260,000 active. AID 686992, 2013;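 active means mean E-selectin-positive cell signal at least 10% of the positive control, reached in at least 60% of replicates, without over 20% cell loss; inconclusive means no rule given, readout overlaps actives, possibly toxicity-flagged; inactive means the rest, including those meeting only one limit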
#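 System: HUVEC / Compound: single concentration / Signal: immunofluorescence imaging / Read-out: percent E-selectin-positive cells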
# Cneo AK release: Cryptococcus neoformans cell lysis inducers, primary screen, AK release luminescence, single concentration. C. neoformans lysis, adenylate kinase release luminescence, 4 h; normalised: neutral wells 0, clomiphene wells 100. lysis activity, % at 15 µM. 0.2% of 360,000 active;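 active means mean lysis activity across replicates of at least 80%, whatever share of replicates individually reach that level; inactive means mean lysis activity below 80%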
#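 Material: C. neoformans cells | Amount: Yeast cell density of 5 × 10^6 cells/mL | Medium: Fresh YPD growth medium | Dosing: Single dose | Times: Static 4 h at 37 °C with compound, 1 h detection | Detection: AK luminescence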
# * = called active by the depositor; ? = inconclusive; nt = no result given.
# Assay codes – A = Yeast UUG start; B = DENV2 CPE rescue; C = E-sel inducer; D = Cneo AK release
C[C@@H]1CCCCO[C@@H](CN(C)C(=O)Nc2cccc3ccccc23)[C@@H](C)CN([C@H](C)CO)C(=O)c2cc(NS(=O)(=O)c3ccccc3)ccc2O1
  A: 18; B: 1; C: nt; D: 95*
C[C@H](CO)N1C[C@H](C)[C@@H](CN(C)C(=O)Nc2cccc3ccccc23)OCCCC[C@H](C)Oc2ccc(NS(=O)(=O)c3ccccc3)cc2C1=O
  A: -4; B: ?; C: nt; D: -6
C/C=C/c1ccc2c(c1)O[C@@H](CN(C)C(=O)CC)[C@H](C)CN([C@@H](C)CO)S2(=O)=O
  A: 7; B: -2; C: 1; D: -1
CC(C)NC(=O)CC(=O)N/N=C\c1ccccc1C(=O)O
  A: nt; B: 2; C: nt; D: nt
CC(O)C(=O)N/N=C/c1ccccc1C(=O)O (centres undefined)
  A: -6; B: -1; C: 375*; D: -1
OC(COc1ccc(Cl)cc1Cl)Cn1ccnc1 (centres undefined)
  A: -2; B: 42*; C: 1; D: -1
C/C(=N\NC(=O)c1ccc(CSc2cccc3cccnc23)cc1)C1CCCCC1
  A: nt; B: 102*; C: -1; D: nt
CO[C@H]1O[C@H](CO)[C@@H](OC(=O)Nc2ccccc2-c2ccccc2)[C@H](OC(=O)Nc2ccccc2-c2ccccc2)[C@@H]1OC(=O)Nc1ccccc1-c1ccccc1
  A: nt; B: -4; C: nt; D: -6
C[C@H](CO)N1C[C@H](C)[C@H](CN(C)C(=O)Nc2ccc(-c3ccccc3)cc2)OCc2ccccc2-c2c(n(C)c3ccccc23)C1=O
  A: nt; B: 88*; C: 1; D: nt
C[C@H](NC(=O)N(C)C[C@H]1OCc2ccccc2-c2c(n(C)c3ccccc23)C(=O)N([C@H](C)CO)C[C@H]1C)c1ccccc1
  A: nt; B: 32*; C: nt; D: nt
CO[C@H](C(=O)N(C)C[C@H]1OCc2ccccc2-c2c(n(C)c3ccccc23)C(=O)N([C@@H](C)CO)C[C@@H]1C)c1ccccc1
  A: nt; B: 26*; C: 1; D: 48
CCCNC(=O)N[C@@H]1CC[C@@H](CCn2cc(C3CCCC3)nn2)O[C@H]1CO
  A: -6; B: 33*; C: 0; D: 4
CC(C)c1cn(CC[C@@H]2CC[C@H](NC(=O)C3CCOCC3)[C@@H](CO)O2)nn1
  A: nt; B: 71*; C: 0; D: nt
O=C(N[C@@H]1CC[C@@H](CCn2cc(C3CCCC3)nn2)O[C@H]1CO)c1cccnc1
  A: nt; B: 29*; C: 0; D: nt
CC(C)c1cn(CC[C@@H]2CC[C@@H](NC(=O)C3CCOCC3)[C@H](CO)O2)nn1
  A: nt; B: -10; C: 1; D: nt
COc1cccc(NC(=O)N[C@H]2CC[C@H](CC(=O)N3CCN(C)CC3)O[C@H]2CO)c1
  A: 6; B: -10; C: 0; D: 1
O=C(C[C@@H]1C[C@H]2c3cc(NC(=O)c4cccnc4)ccc3O[C@H]2[C@H](CO)O1)NCc1ccccn1
  A: -18; B: 14; C: 0; D: 11
OCC(O)CN1CCN(c2ccccc2)CC1 (centres undefined)
  A: 2; B: 12; C: 0; D: 0
OC(CSc1ccc(F)cc1)CN1CCN(c2ccccc2)CC1 (centres undefined)
  A: nt; B: 17; C: 56*; D: nt
OC(CN1CCN(c2cccc(Cl)c2)CC1)c1ccc(F)cc1 (centres undefined)
  A: -15; B: 49*; C: 0; D: -3
CCCc1cn(CC[C@@H]2CC[C@H](NC(=O)C3CCC3)[C@@H](CO)O2)nn1
  A: -5; B: 5; C: 1; D: -4
O=C([C@H]1[C@H](CO)[C@H]2Cn3c(cccc3=O)[C@@H]1N2CC1CCCC1)N1CCOCC1
  A: nt; B: 23*; C: 0; D: nt
O=C([C@@H]1[C@@H](CO)[C@@H]2Cn3c(cccc3=O)[C@H]1N2Cc1ccccc1)N1CCCCC1
  A: nt; B: 50*; C: 0; D: 0
O=C([C@H]1[C@H](CO)[C@H]2Cn3c(cccc3=O)[C@@H]1N2Cc1ccccc1)N1CCCCC1
  A: nt; B: 0; C: 0; D: -3
C[C@H]1CN([C@@H](C)CO)C(=O)c2cccc(NC(=O)Nc3ccc(F)cc3)c2O[C@H]1CN(C)C(=O)Nc1ccc(F)cc1
  A: 9; B: -9; C: 0; D: -8
CCc1cnc(N2[C@@H](C#N)[C@H](c3ccc(C#CCC4CCCC4)cc3)[C@@H]2CO)s1
  A: 3; B: -13; C: 0; D: 2
C[C@H](CO)N1C[C@H](C)[C@H](CN(C)Cc2ccncc2)Oc2c(NS(=O)(=O)c3ccc(Cl)cc3)cccc2C1=O
  A: -11; B: ?; C: 1; D: -1
COCC#Cc1ccc2c(c1)O[C@H](CN(C)C(=O)C1CC1)[C@@H](C)CN([C@H](C)CO)S2(=O)=O
  A: -4; B: -8; C: 0; D: 1

# Complete entries, quoted from the list:
# `CC(C)c1cn(CC[C@@H]2CC[C@H](NC(=O)C3CCOCC3)[C@@H](CO)O2)nn1` reads Yeast UUG start: nt; DENV2 CPE rescue: 71*; E-sel inducer: 0; Cneo AK release: nt
# `O=C([C@H]1[C@H](CO)[C@H]2Cn3c(cccc3=O)[C@@H]1N2CC1CCCC1)N1CCOCC1` reads Yeast UUG start: nt; DENV2 CPE rescue: 23*; E-sel inducer: 0; Cneo AK release: nt
